Data published in patent publication US9918966B2, “Anti-cancer compositions and methods” (The Penn State Research Foundation, priority 2013, dated 2018).

Tested on: normal human melanocytes or fibroblast cells

Selenocoxib-1
toxicity on normal cells relative to melanoma cells: reduces normal cell growth with IC50s similar to that of melanoma cells
